Measurements: patent publication US5502037A, “Pro-cytotoxic drug conjugates for anticancer therapy” (priority 1993, dated 1996)

What was measured:
[1] = tested on: mouse Yoshida ascites sarcoma cells; settings: cited from earlier work; for In vitro activities: Cytotoxicity: cu = cytostatic units, Yoshida ascites sarcoma cells, Brock, 1976
[2] = tested on: Yoshida ascites sarcoma; settings: cited from earlier work; for In vivo activities: CD50: curative dose
[3] = cited from earlier work
[4] = tested on: PC12 pheochromocytoma cells; test: Cytotoxicity of the individual components, parallel experiments; settings: CPA 1 μM, 25 μM, 50 nM
[5] = Yoshida ascites sarcoma in rat, Brock, 1976

Row | Structure (SMILES) | activity in the in vitro Yoshida cell cytotoxicity test (in words) ([1]; comment on Table II) | In vitro activities: Cytotoxicity [1] | activity in vivo against the rat Yoshida ascites sarcoma (in words) ([2]; comment on Table II) | In vivo activities: CD50 [2, 5] | toxicity of circulating CPA ([3]; circulating CPA per se) | cell entry of circulating CPA ([3]; circulating CPA) | extracellular metabolism of circulating CPA ([3]; circulating CPA) | excretion of circulating CPA ([3]; via the kidneys) | cytotoxicity effects of CPA alone [4] | In vivo activities: LD50 ([2]; lethal dose, rat, Brock, 1976) | D50 Index (LD50/CD50) ([2]; therapeutic index, Yoshida ascites sarcoma in rat, Brock, 1976)
1 | NP(=O)(OCCC(=O)O)N(CCCl)CCCl (stereo not shown) | virtually inactive | 0.1 CU/μmol | virtually inactive | 200 mg/kg | not toxic per se | does not enter cells in significant amounts | is not metabolized extracellularly | normally entirely excreted from the body via the kidneys | negligible |  | 
2 | O=P1(N(CCCl)CCCl)NC(O)CCO1 (stereo not shown) |  | 63 CU/μmol |  | 1.25 mg/kg |  |  |  |  |  | 150 mg/kg | 120
